From patent publication US10653676B2 (Dana-Farber Cancer Institute, Inc., priority 2010, dated 2020) come the findings set out here.

Sequences of proteins named here, by UniProt entry; tags and fusion partners are left off.
UniProt O94782, whole entry G670A/G671A: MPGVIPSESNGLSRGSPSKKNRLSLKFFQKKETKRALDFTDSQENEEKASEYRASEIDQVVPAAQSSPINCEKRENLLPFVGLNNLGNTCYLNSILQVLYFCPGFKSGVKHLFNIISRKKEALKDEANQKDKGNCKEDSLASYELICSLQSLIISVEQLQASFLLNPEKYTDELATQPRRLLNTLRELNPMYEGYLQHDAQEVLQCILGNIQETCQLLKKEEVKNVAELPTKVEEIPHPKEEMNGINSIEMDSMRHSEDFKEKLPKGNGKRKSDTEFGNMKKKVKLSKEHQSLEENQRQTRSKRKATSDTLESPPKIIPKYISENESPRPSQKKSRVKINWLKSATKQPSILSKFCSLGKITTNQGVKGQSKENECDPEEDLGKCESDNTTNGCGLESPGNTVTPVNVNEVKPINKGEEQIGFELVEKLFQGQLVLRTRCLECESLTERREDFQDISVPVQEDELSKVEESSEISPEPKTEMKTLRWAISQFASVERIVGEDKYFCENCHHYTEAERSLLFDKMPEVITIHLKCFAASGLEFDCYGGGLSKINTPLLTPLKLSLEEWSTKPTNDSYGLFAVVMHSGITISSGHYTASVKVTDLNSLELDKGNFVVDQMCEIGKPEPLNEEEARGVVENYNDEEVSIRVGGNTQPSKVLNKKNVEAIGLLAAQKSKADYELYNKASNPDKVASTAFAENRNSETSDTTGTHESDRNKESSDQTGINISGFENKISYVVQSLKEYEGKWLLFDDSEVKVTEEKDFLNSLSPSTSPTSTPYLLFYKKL

One data set has as its target T1, USP1/UAF1 complex (Homo sapiens, UniProt O94782, G670A/G671A).
T1 construct: This modified full length USP1 clone was PCR amplified and subcloned into pFastBac-HT vectors; His tag (N); made in house; host or cells: Sf9 insect cells (baculovirus)
Briefly: ubiquitin-AMC in vitro deubiquitination enzyme assay. In kind it is biochemical. The following applies: 25 nM. On the procedure: Purified USP1/UAF1 complex was incubated with 1 μM C527 or DMSO for indicated time, followed by the addition of Ub-AMC at 0.5 μM final concentration. The fluorescence at […] was measured to indicate the enzymatic activity of USP1. […] 5A.
The in vitro enzymatic assays were performed using purified proteins from Sf9 cells as described previously (Cohn et al.). The assays using ubiquitin-AMC (Ub-7-amido-4-methylcoumarin; Boston Biochem) as substrate was carried out in a reaction buffer containing 20 mM HEPES-KOH (pH 7.8), 20 mM NaCl, 0.1 mg/ml ovalbumin, 0.5 mM EDTA and 10 mM dithiothreitol. The fluorescence was measured by FluoStar Galaxy Fluorometer (BMG Labtech). For the Ub-vinylsulfone (VS) assay, the proteins were incubated with Ub-VS at 0.5 μM final concentration for 1 h at 30° C., followed by the immunoblotting analysis.
In order to develop a highly sensitive assay with easy readout for high throughput detection, the fluorogenic compound Ubiquitin-7-amido-4-methylcoumarin (AMC-Ub, Boston Biochem) was used as a substrate for USP1/UAF1 enzyme complex. USP1 catalyzes the cleavage of AMC-Ub, releasing free AMC moiety, which leads to increase in fluorescence emission at 460 nm (λex=380 nm). […] Fluorescence was measured using a Fluostar Galaxy Fluorometer (BMG Labtech Inc.).
Hits from the initial screening were analyzed further in secondary screening. […]

The next data set concerns the target T2, USP1 (Homo sapiens, UniProt O94782).
T2 construct: endogenous in cells; host or cells: HeLa
Briefly: Ub-vinyl sulfone conjugation of USP1 in lysates of compound-treated HeLa cells. Format: cell-based. To be noted: 50 μM inhibitor for 2, 4, or 6 hours, lysates with Ub-Vs 40 minutes, FIG. 2. On the procedure:
In one set of experiments, HeLa cells were incubated in the presence of 50 μM of selected inhibitors including the compound of Formula III (933) and the compound of Formula IV (527) for 2, 4, or 6 hours, followed by cell lysis. Ub-aldehyde (Ub-Ald, a known USP1 inhibitor) was used as a positive control, and dimethysulfoxide (DMSO) was used as a negative control. Lysates were incubated with the Ub-vinyl sulfone (Ub-Vs) reagent for 40 minutes. Proteins were electrophoresed on SDS-PAGE, transferred to nitrocellulose, and immunoblotted with the anti-USP1 antibody.
HeLa cells were incubated with the compound of Formula IV (527) for eight hours, followed by cell lysis and incubation of protein extract with Ub-vinyl sulfone.

Turning to Ub-aldehyde [reference compound], the “enzyme activity of USP1/UAF1 complex upon incubation” value with USP1/UAF1 complex is “sharp decrease in enzyme activity”. Also, the “Ub-Vs conjugation of USP1 / deubiquitinase activity” value in the data set with USP1 is given as “blocked Ub-Vs conjugation of USP1”.
